Consider one compound from PMC6152638, “Anti-Inflammatory Phenolic Acid Esters from the Roots and Rhizomes of Notopterygium incisium and Their Permeability in the Human Caco-2 Monolayer Cell Model” (Molecules : A Journal of Synthetic Chemistry and Natural …, 2017).

Series [1] is described as follows: Transport in the human intestinal Caco-2 cell monolayer model. The format is in vitro ADME. The conditions noted are these: ratio of Papp BL→AP to Papp AP→BL. Here is the method: For confluence and differentiation, cells were seeded at a density of 1 × 10^5 cells/cm^2 into 12-well Transwell plates (insert diameter 12 mm, pore size 3.0 μm, membrane growth area 1.12 cm^2, Costar® #3402) and were allowed to grow for 21 days before the permeation experiment. On Day 21, the monolayers with TEER values >500 Ω·cm^2 were qualified for the transport experiment. The transport study was initiated by the careful removal of the culture medium from AP and BL side of the inserts. Caco-2 monolayers were rinsed twice with pre-warmed HBSS and were incubated by pre-warmed HBSS for 30 min at 37 °C. Stock solutions of test phenolic acid esters were prepared in DMSO and diluted to 50 µM with HBSS. […] Samples were collected from the inserts, then frozen, lyophilized, redissolved in MeOH, and injected into HPLC system for quantitative analysis.
The Papp values were calculated as the following equation:Papp = (dQ/dt) × (1/A) × (1/C0) (cm/s)(1) where dQ/dt is the rate of the appearance of the test compound on the receiver compartment (μmol/s), C0 is the initial test compound concentration on the donor compartment (μmol/mL), and A is the surface area of Caco-2 monolayer (cm^2).
In general terms: Passage across Caco-2 layers is used to estimate intestinal permeability.

Series [2] relates to RAW264.7 cells. The series can be described thus: MTT cytotoxicity assay in RAW264.7 cells. The conditions noted are these: 3.125–100 μM; viability less than 95% of control considered toxic. (Formazan colour is commonly taken as a measure of viable cells.)

As a reminder, the efflux ratio is a quotient of directional permeabilities that is used to spot active efflux. For the compound `O=C(OCc1ccccc1)c1ccccc1O` [Compound 2, benzylsalicylate], in series [1], the efflux ratio at 90 min, 50 µM was determined as 0.75. Also, the “cytotoxicity (MTT)” value in series [2] is “no toxicity”.
